The numbers were not newly measured in PMC6723713, “Purification, Characterization and Evaluation of Inhibitory Mechanism of ACE Inhibitory Peptides from Pearl Oyster (Pinctada fucata martensii) Meat Protein Hydrolysate” (Marine Drugs, 2019), which cites them from elsewhere.

Amino acid sequences for entries named in this document (tags omitted). Residues count along the entry.
UniProt P12822, 34-1310 limits assumed: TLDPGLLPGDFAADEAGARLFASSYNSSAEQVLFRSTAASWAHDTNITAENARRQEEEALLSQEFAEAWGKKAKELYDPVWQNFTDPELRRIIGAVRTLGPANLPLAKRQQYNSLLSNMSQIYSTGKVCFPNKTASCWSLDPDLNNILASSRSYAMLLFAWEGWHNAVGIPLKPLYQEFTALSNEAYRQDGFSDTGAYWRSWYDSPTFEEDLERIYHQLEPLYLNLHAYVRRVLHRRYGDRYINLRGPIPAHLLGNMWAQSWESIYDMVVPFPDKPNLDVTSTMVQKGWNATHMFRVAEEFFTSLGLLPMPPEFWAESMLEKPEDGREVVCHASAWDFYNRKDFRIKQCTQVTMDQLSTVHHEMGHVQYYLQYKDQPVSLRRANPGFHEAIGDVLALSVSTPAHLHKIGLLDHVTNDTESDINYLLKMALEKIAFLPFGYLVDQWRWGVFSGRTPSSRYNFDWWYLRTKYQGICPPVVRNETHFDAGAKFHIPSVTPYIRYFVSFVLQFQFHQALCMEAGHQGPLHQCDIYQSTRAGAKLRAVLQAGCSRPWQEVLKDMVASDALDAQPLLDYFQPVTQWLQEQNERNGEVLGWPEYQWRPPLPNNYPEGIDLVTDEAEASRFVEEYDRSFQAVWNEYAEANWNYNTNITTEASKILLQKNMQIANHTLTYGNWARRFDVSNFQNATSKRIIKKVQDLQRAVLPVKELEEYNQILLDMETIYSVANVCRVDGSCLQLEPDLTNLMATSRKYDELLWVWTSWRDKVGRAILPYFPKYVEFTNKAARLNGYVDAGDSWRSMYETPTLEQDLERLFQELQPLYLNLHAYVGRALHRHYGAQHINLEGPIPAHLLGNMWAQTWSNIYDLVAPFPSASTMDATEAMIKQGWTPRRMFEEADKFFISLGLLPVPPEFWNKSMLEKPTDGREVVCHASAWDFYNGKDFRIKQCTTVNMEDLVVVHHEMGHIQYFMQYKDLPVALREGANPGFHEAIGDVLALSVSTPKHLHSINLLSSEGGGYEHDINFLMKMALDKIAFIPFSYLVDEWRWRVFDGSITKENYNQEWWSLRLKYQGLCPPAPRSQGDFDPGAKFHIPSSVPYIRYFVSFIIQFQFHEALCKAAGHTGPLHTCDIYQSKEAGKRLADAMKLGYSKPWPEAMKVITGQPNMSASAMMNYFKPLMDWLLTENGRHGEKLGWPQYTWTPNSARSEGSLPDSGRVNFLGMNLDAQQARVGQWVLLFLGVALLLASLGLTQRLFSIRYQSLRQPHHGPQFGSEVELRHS

The structures appear in SMILES notation. pIC50: −log10 of the molar value.

In the data set the target is ACE (Oryctolagus cuniculus, UniProt P12822). The note with it: ref [28]; cited from earlier work. From the text:
Table 2 Summary of ACE inhibitory peptides having similar structure with purified peptides. | column: IC50 (μM) || Table 3 Inhibition pattern of ACE inhibitory peptides derived from marine products. | column: Inhibition Pattern; IC50 (μM)

With `C[C@H](NC(=O)[C@@H](N)Cc1c[nH]c2ccccc12)C(=O)O`, the pIC50 is 3.56.

By pIC50 is commonly meant the negative decadic logarithm of the IC50, by convention in mol/L.
